Source: paper PMC4188773 (Cell calcium, 2014)

Experiments:
[1] = source not stated; cited from earlier work
[2] = target: T1, mouse eugenol OR (mOR-EG) (Mus musculus, UniProt Q920P2); assay: mOR-EG/PLC Ca2+ imaging: mOR-EG + Gα15 in HEK293T cells; type: cell-based; conditions: read-out: PLC-mediated Ca2+ response, EC50
T1 sequence (Q920P2 1-313): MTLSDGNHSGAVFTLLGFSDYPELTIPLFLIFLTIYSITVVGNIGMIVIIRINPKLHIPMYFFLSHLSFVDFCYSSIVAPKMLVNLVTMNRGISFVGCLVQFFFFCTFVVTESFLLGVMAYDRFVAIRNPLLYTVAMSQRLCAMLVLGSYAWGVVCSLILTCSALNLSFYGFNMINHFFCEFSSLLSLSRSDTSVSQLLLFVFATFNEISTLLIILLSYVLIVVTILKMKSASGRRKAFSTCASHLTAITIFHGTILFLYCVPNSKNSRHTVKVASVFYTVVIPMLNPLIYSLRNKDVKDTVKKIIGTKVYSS

[3] = target: T1, mouse eugenol OR (mOR-EG); assay: mOR-EG/AC Ca2+ imaging: mOR-EG + Gαolf + CNGC-camp in HEK293T cells; type: cell-based; conditions: read-out: AC-mediated Ca2+ response, EC50
[4] = pH 7; cited from earlier work

In the case of isoeugenol, the logP [1] is listed as 7.3/3.08, the EC50 [2] is listed as 35.4 µM and the EC50 [3] is listed as 286 µM. The solubility [4] was 7.3/3.08 mmol/l.
